What was measured:
[1] = system: IL-1β, IL-6, TNFα, CCL2, CCL3, CCL4, CXCL10 mRNA; conditions: mouse, in vivo
[2] = system: mice after pilocarpine-induced status epilepticus; conditions: mouse, in vivo
[3] = in vitro; conditions: rat
[4] = target: T1, EP2 receptor (Homo sapiens, UniProt P43116); test: Schild regression of PGE2-induced EP2 activation in C6G-EP2 cells; format: cell-based; set-up: expressed in transfected cells; host or cells: C6G-EP2 cells
Method: (§1) Information on the modality of antagonism can be obtained by performing Schild regression analysis characterized by: log (dr−1)=log XB−log KB. In the equation, dose ratio (dr)=fold shift in EC50, XB=[antagonist], KB=equilibrium dissociation constant for the antagonist-receptor complex. […] Thus, a lower KB value indicates a higher inhibitory potency.
To perform the Schild regression, C6G-EP2 cells were incubated first with vehicle, 0.01, 0.1 or 1 μM of test compound for 5 minutes, then with increasing concentrations of PGE2 to activate the EP2 receptor.

Sequences of proteins named here, by UniProt entry; tags and fusion partners are left off. A change or cut given only in a name is not applied to a line headed by its entry.
UniProt P43116: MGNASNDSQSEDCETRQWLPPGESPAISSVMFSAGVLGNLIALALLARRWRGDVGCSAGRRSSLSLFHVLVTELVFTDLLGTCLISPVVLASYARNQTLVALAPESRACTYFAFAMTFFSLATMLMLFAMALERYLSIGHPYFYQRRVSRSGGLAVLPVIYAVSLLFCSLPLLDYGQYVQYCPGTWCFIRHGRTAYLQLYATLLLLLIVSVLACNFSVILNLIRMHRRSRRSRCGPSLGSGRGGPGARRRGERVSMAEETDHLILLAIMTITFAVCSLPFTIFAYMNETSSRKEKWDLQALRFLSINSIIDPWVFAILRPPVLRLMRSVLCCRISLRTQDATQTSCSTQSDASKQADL
UniProt P35408: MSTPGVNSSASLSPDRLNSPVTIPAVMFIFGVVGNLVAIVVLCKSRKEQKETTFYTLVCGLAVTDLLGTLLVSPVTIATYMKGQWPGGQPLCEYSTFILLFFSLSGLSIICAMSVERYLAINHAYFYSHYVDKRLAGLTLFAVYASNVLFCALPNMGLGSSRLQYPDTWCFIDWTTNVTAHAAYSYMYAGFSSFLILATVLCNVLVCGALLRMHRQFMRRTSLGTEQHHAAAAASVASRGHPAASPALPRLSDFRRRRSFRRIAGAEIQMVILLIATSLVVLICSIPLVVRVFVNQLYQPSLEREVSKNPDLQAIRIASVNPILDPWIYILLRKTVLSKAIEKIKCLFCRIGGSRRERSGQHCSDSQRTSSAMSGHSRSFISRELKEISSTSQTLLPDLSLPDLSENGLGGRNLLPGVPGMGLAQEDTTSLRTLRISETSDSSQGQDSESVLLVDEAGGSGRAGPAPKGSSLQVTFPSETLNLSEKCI

[5] = system: rat primary hippocampal cultures; test: NMDA-induced LDH release (excitotoxicity) in primary hippocampal cultures; format: cell-based; conditions: read-out: NMDA-induced LDH release, % of control
From the text: Excitotoxicity caused by NMDA receptor activation is recognized to induce neuronal apoptosis both in vitro and in vivo in cortical neurons. NMDA receptor activation can, via COX-2, cause prostaglandin production, including PGE2. Activation of the EP2 receptor by PGE2 in microglia can promote neuroinflammation in several models of neurodegenerative diseases. The effect of EP2 antagonist compounds were examined on NMDA-induced excitotoxicity. Rat primary hippocampal cultures (DIV13-15) were preincubated with vehicle or increasing concentrations of test compound for 15-20 min, followed by treatment with NMDA (30 μM) plus glycine (10 μM) overnight in continued presence of the test compound. Lactate dehydrogenase (LDH) release was used as the measure of neuronal injury.

[6] = target: T1, EP2 receptor; test: Butaprost-induced cAMP accumulation in PC3 cells; format: cell-based; set-up: PC3 cells express a substantially higher level of EP2 than DU145 and LNCap cells; endogenous in cells; host or cells: PC3 cells; conditions: read-out: KB for inhibition of butaprost-induced cAMP accumulation
From the text: PGE2/EP2 signaling has been recognized to play important roles in mediating tumor progression and tumor-associated angiogenesis.

[7] = system: C6G cells; test: CellTiter-Glo luminescent cell viability assay (cytotoxicity)
[8] = target: EP4 receptor (Homo sapiens, UniProt P35408); test: Schild regression analysis for EP4 receptor; format: cell-based
From the text: as §1

## COc1cc(/C=C/C(=O)NCCn2c(C(F)(F)F)cc3ccccc32)cc(OC)c1OC [1h, N-(2-(2-(trifluoromethyl)-1H-indol-1-yl)ethyl)-3-(3,4,5-trimethoxyphenyl)acrylamide]
[1]
  Blunting of SE-induced cytokine and chemokine induction, average: 54%
[2]
  Leakage of plasma albumin into the cortex (Western blot): significantly prevented
  Status epilepticus-induced mortality rate: reduced
[2]; ip, 5 mg/kg
  Reduction of SE-induced neurodegeneration in CA1: 66%
  Reduction of SE-induced neurodegeneration in CA3: 52%
  Reduction of SE-induced neurodegeneration in hilus: 55%
[3]
  CC50: 81000 nM
[4]
  Kb: 21.4 nM
[5]
  activity at 10 µM: 72%

## COc1cc(C=CC(=O)NCCn2c(C)cc3ccccc32)cc(OC)c1OC [A1, N-(2-(2-methyl-1H-indol-1-yl)ethyl)-3-(3,4,5-trimethoxyphenyl)acrylamide]
[6]
  Kb: 18.1 nM

## COc1cc(CC(=O)NCCn2c(C)cc3ccccc32)cc(OC)c1OC [TG7-128]
[4]; read-out: EP2 KB
  Kb: 680 nM

## COc1cc(CCC(=O)NCCn2c(C)cc3ccccc32)cc(OC)c1OC [1l, N-(2-(2-methyl-1H-indol-1-yl)ethyl)-3-(3,4,5-trimethoxyphenyl)propanamide]
[7]
  Therapeutic index (in vitro), CC50/KB for EP2: 1,860
[8]
  Selective index, KB EP4/KB EP2: 85
[4]; read-out: KB (nM) EP2, from Schild regression analysis
  Kb: 214 nM
